According to patent US7345020B2, “Mimetics of CD4 that inhibit immune response” (Thomas Jefferson University, priority 1995, dated 2008):
“And” between values parts separate entries of the source, which are not always exact repeats. Equal values may be shown once.

Molecular target: MHC, class II, gene products (on Raji cells) (human)
Test: cell-based or functional assay

human CD4 (from UniProt P01730 26-458) (receptor)
inhibition of rosettes between Raji cells and CD4-transiently transfected COS-7 cells by cyclic peptide CNSNQIC (SEQ ID NO:45) at 200 uM: 57% and 63% and 51% | inhibition of rosetting of Cr-51 labelled Raji cells to stably T4-pMV7-transfected COS-1 cells by CNSNQIC (SEQ ID NO:45) at 200 uM: > 75%
